Literature values in article PMC4281022 (Journal of medicinal chemistry, 2013).

Protein sequences, listed by entry. Tags and fused reporters are not part of them.
UniProt P47746, whole entry: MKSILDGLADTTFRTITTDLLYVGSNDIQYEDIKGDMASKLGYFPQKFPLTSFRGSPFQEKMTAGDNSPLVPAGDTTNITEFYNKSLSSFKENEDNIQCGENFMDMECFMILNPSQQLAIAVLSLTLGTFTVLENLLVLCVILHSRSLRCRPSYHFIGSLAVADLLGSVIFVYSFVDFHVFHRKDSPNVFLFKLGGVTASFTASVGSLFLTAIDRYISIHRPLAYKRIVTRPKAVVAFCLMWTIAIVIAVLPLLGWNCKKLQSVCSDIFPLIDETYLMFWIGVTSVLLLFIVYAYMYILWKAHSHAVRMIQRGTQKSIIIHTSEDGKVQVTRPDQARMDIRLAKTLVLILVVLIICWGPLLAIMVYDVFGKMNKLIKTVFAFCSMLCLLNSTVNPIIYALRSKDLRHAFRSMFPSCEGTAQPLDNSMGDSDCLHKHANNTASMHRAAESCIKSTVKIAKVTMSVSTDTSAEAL

Target: CB1 receptor (Mus musculus, UniProt P47746)
Details: cited from earlier work

## Cc1c(C(=O)NN2CCCCC2)nn(-c2ccc(Cl)cc2Cl)c1-c1ccc(Cl)cc1 [rimonabant]
  Effect of co-administration on tetrad effects of a CB1 agonist: blocked
